We go through one molecule from patent US20240423942A1, “PHARMACEUTICAL COMPOSITION INCLUDING RETINOIC ACID AND CARBOHYDRATE AND USE THEREOF” (Mastery Biotech CO., LTD., priority 2022, published 2024).

Broadly, the inhibition is the relative decrease from the control value, in per cent.

In this test the target is SARS-COV-2 PLpro (Severe acute respiratory syndrome coronavirus 2, UniProt P0DTD1). The experiment in a line: biochemical. The following applies: read-out: Inhibition percentage (%). As for the experimental part: The enzymatic activity of SARS-COV-2 PLpro obtained above was measured by a colorimetry-based peptide cleavage assay, using the 6-mer peptide substrate, FRLKGG-para-nitroanilide (FG6-pNA) (purity 97% by HPLC; GL Biochem Ltd., Shanghai, China). In the cleavage assay, the 6-mer peptide substrate was cleaved at the Gly-pNA bond to release free pNA, which turned the color of the solution to yellow. The enzymatic activity was determined by continuously monitoring the absorbance at 405 nm (A405) using a 96-well microplate spectrophotometer (Epoch™ 2, Biotek) at 30° C.
An enzyme inhibition assay was performed in a 96-well microplate. […]
20 μL of FG6-pNA (1.2 mM) described above was added into the test mixture of the respective group to initiate the enzyme reaction. […] The enzymatic activity was determined by continuously monitoring the absorbance at 405 nm (A405) using a 96-well microplate spectrophotometer (Epoch™ 2, Biotek). The reaction rate was calculated accordingly, wherein the reaction rate is the slope of the absorbance A405 versus time (seconds) for a total reaction time of 300 seconds.
The inhibition percentage was calculated using the following equation: […]
20 μL of FG6-pNA (1.2 mM) described above was added into the test mixture of the respective group to initiate the enzyme reaction. […] The inhibition percentage was calculated as described in Example 3.

Consider `CC1=C(/C=C/C(C)=C/C=C/C(C)=C\C(=O)O)C(C)(C)CCC1` [isotretinoin, 13-cis-retinoic acid, reference compound], for which the inhibition at 50 µM is 20.9 ± 1.24%.
